The list shows a part of the results, in another mix than the full data. Calls of active or inactive are those of the source.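 How the source made its calls: active means percent inhibition above its own plate's cutoff, namely the mean of that plate's compound wells plus 3 SD; inactive means the rest.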
The compounds below were run against Muscarinic acetylcholine receptor M1 (Homo sapiens) (UniProt P11229) (assay: CHRM1 blockers of acetylcholine calcium response – CHO-K1 cells, Fluo-8 calcium fluorescence, 1536-well, primary screen (AID 588852;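 further: peak over basal fluorescence ratio during 140 s after agonist addition; 0% = ACh EC80 plus DMSO and 100% = DMSO alone without agonist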)). Details: CHO-K1 hM1, Fluo-8 calcium fluorescence, ACh EC80 antagonist; at 3 µM; stronger effect = higher value.

Chains of the proteins cited; added tags and fusions are not shown.
UniProt P11229, whole entry: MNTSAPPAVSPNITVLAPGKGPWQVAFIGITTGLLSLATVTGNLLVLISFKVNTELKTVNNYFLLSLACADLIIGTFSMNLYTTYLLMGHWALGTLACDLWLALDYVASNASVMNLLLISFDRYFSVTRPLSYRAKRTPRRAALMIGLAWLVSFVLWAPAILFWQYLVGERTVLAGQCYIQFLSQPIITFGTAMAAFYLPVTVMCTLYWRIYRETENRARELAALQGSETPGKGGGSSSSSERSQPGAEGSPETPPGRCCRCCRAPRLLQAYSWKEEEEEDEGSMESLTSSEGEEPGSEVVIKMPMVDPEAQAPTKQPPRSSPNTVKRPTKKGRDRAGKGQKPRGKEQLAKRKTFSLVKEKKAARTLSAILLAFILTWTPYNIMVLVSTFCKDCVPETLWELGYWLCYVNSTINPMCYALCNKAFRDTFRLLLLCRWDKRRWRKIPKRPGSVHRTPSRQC

Row | Structure (SMILES) | inhibition
1 | O=P(Nc1nc2ccccc2s1)(c1ccccc1)c1ccccc1 | inactive: 19.3%
